Experimental data: patent US20170096479A1 (published 2017)

By UniProt entry, the sequences of proteins in these tests, tags left out. Chains listed by the source or under a name are the forms on record and can include a tag or linker.
human VEGF165, UniProt P15692, other isoform, or with tags, fused parts or gaps limits assumed: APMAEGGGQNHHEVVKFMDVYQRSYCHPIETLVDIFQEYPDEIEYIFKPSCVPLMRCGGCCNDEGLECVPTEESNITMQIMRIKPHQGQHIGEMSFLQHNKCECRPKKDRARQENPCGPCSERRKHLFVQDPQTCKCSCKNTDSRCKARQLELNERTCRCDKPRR

B1: G6.31 WT (Fab, V domains shown)
VH: EVQLVESGGGLVQPGGSLRLSCAASGFTISDYWIHWVRQAPGKGLEWVAGITPAGGYTYYADSVKGRFTISADTSKNTAYLQMNSLRAEDTAVYYCARFVFFLPYAMDYWGQGTLVTVSS
VL: DIQMTQSPSSLSASVGDRVTITCRASQDVSTAVAWYQQKPGKAPKLLIYSASFLYSGVPSRFSGSGSGTDFTLTISSLQPEDFATYYCQQGYGNPFTFGQGTKVEIK
B2: G6.31 AARR (N94A.F83A.N82aR.Y58R) (Fab, V domains shown)
VH: EVQLVESGGGLVQPGGSLRLSCAASGFTISDYWIHWVRQAPGKGLEWVAGITPAGGYTRYADSVKGRFTISADTSKNTAYLQMRSLRAEDTAVYYCARFVFFLPYAMDYWGQGTLVTVSS
VL: DIQMTQSPSSLSASVGDRVTITCRASQDVSTAVAWYQQKPGKAPKLLIYSASFLYSGVPSRFSGSGSGTDFTLTISSLQPEDAATYYCQQGYGAPFTFGQGTKVEIKR

Tests used:
[1] = target: human VEGF (hVEGF) (human) (UniProt P15692); assay: SPR BIACORE T200, single cycle
[2] = target: human VEGF (hVEGF) (human, UniProt P15692 181-395); assay: cell-based or functional assay
[3] = target: human VEGF165 (human, UniProt P15692-4 27-191); assay: cell-based or functional assay

Molecule | Kd [1] | koff [1] | kon [1] | IC50 relative to G6.31, VEGF-induced HUVEC migration assay [2] | qAC50 (equivalent to IC50), pKDR receptor activation assay on KDR-CHO cells [3]
G6.31 HC-S5E (Fab) | 0.576 nM | 0.000454 s⁻¹ | 788000 M⁻¹ s⁻¹ |  | 
B1 |  |  |  | 1 relative to G6.31 | 
B2 |  |  |  | 0.5 relative to G6.31 | 0.932 nM
